Values of other authors, collected in US11020395B2, “Cycloalkyl substituted triazole compounds as agonists of the APJ receptor” (AMGEN INC., priority 2016, dated 2021).

Amino acid sequences for entries named in this document (tags omitted). A change or cut given only in a name is not applied to a line headed by its entry.
UniProt P35414: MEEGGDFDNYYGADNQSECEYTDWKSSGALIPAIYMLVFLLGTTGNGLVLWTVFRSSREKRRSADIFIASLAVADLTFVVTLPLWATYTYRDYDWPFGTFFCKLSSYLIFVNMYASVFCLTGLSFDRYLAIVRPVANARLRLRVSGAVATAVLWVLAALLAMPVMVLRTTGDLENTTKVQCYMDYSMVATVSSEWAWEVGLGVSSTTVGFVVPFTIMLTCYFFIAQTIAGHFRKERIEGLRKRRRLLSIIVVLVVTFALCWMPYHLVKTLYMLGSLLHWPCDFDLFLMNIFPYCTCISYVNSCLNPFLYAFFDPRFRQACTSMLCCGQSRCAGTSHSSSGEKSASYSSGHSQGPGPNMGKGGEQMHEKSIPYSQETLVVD

Target: APJ receptor (Homo sapiens (Human), UniProt P35414)
Conditions: relative to apelin-36; cited from earlier work

**Q.** For Apelin-13, which “fold higher in vitro affinity to the APJ receptor than apelin-36” value is on record?
**A.** ~3.5 fold
